# Measured values from PubChem BioAssay AID2006 (Sanford-Burnham Center for Chemical Genomics, 2009).
# Chains of the proteins cited; added tags and fusions are not shown.
# UniProt P63279, whole entry: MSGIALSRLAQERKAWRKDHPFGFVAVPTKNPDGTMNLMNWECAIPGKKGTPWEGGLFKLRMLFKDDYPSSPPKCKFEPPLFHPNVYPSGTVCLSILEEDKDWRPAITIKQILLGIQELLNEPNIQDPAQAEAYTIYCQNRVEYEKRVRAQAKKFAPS
# The entries are a selection whose mix differs from that of the whole data set. Some salts and complexes are drawn in separate pieces, as the source files them; their charges need not balance. Calls of active or inactive are those of the source. Cut-off read from the data, not from the text of the source: active = inhibition above about 50% (passing the limit was not always enough); inconclusive = no clear call, values can overlap the other calls.
# Target: SUMO-conjugating enzyme UBC9 (Homo sapiens) (UniProt P63279)
# Assay: inhibitors of in vitro SUMOylation cascade, primary screen, biochemical, HTRF, uHTS (AID 2006)
# Details: HTRF SUMOylation assay, SAE1/SAE2 + UBC9, in vitro; at 35 µM; stronger effect = higher value
row,SMILES,inhibition
1,CCN(CC)CCCOC(=O)C(O)(c1ccccc1)C1CCCCC1 (stereo not given),inactive: 7.3%
2,O=[N+]([O-])c1cc([N+](=O)[O-])c(OC2CCCCC2O)c([N+](=O)[O-])c1 (stereo not given),inactive: 11.7%
3,CCCCCOc1ccc(NP(C)(=O)Oc2ccc(Cl)cc2Cl)cc1 (stereo not given),inactive: 13.1%
4,CP(=O)(Nc1ccccc1)Oc1ccc(F)cc1 (stereo not given),inactive: -6.8%
5,COc1ccc(OP(C)(=O)Nc2ccc(SC(F)(F)F)cc2)cc1 (stereo not given),inactive: -11%
6,CCOC(=O)c1ccc(NP(C)(=O)Oc2ccc(F)cc2)cc1 (stereo not given),inactive: 0.3%
7,O=C(OCCN1CCN(CCOCc2ccccc2)CC1)C(O)(c1ccccc1)c1ccccc1,inactive: -14.1%
8,O=C(OC1CN2CCC1CC2)c1ccc([N+](=O)[O-])cc1 (stereo not given),inactive: 11.1%
9,COc1ccc2c(c1O)-c1c(O)c(OC)cc3c1[C@H](C2)[N+](C)(C)CC3.O=[N+]([O-])c1cc([N+](=O)[O-])c([O-])c([N+](=O)[O-])c1[O-],inactive: 12.5%
10,CC(C)c1ccc(OP(C)(=O)Nc2ccc(SC(F)(F)F)cc2)cc1 (stereo not given),inactive: -40.5%
11,CP(=O)(Nc1ccccc1F)Oc1ccccc1 (stereo not given),inactive: 13.9%
12,CP(=O)(Nc1ccc2c(c1)OCCO2)Oc1ccccc1 (stereo not given),inactive: -31.9%
13,Cc1ccccc1NP(C)(=O)Nc1ccccc1C,inactive: 7.1%
14,CP(=O)(Nc1ccc(SC(F)(F)F)cc1)Oc1ccc(F)cc1 (stereo not given),inactive: 12.7%
15,CCOP(C)(=S)SCC(=O)NC(C)(CC)C(=O)O (stereo not given),inactive: 7.8%
16,Cc1cc(-c2cccc3ccccc23)c(C)cn1.O=[N+]([O-])c1cc([N+](=O)[O-])c(O)c([N+](=O)[O-])c1,inactive: 19.4%
17,O=[N+]([O-])c1cc([N+](=O)[O-])c(NCC2CCS(=O)(=O)C2)c([N+](=O)[O-])c1 (stereo not given),inactive: 0%
18,O=[N+]([O-])c1ccc(OP2(=O)COCCO2)cc1 (stereo not given),inactive: 6.4%
19,COc1ccc(OP(C)(=O)Nc2cccc(Br)c2)cc1 (stereo not given),inactive: -4.3%
20,COc1ccc(NP(C)(=O)Oc2ccccc2OC)cc1 (stereo not given),inactive: 0.4%
21,CN(C)CCOC(=O)C(O)(c1ccccc1)C1CCCCC1 (stereo not given),inactive: 16.4%
22,CP(=O)(OC12CC3CC(CC(C3)C1)C2)OC12CC3CC(CC(C3)C1)C2,inactive: 2.8%

row,SMILES,inhibition
1,CCOC(=O)c1ccc(NP(C)(=O)Oc2ccc(Cl)cc2)cc1 (stereo not given),inactive: -6.2%
2,CP(=O)(Nc1ccc(Cl)cc1)Oc1ccc(F)cc1 (stereo not given),inactive: 9.5%
3,CC(C)(C)c1ccc(OP(C)(=O)O)cc1,inactive: 13.4%
4,COc1ccccc1OP(C)(=O)Nc1ccccc1Br (stereo not given),inactive: 1.6%
5,CN(C)C(=O)c1c([N+](=O)[O-])cc([N+](=O)[O-])cc1[N+](=O)[O-],inactive: 19.1%
6,CCN(CC)CC(O)COC(=O)C(O)(c1ccccc1)C1CCCCC1 (stereo not given),inactive: 6%
7,COc1ccc(OP(C)(=O)Nc2ccc(Br)cc2)cc1 (stereo not given),inactive: -0.9%
8,CP(=O)(Oc1ccccc1)N1CCOC1=O (stereo not given),inactive: 1.8%
9,CCc1ccc(OP(C)(=O)Nc2cccnc2)cc1 (stereo not given),inactive: 4.2%
10,COc1ccccc1OP(C)(=O)Nc1c(C)n(C)n(-c2ccccc2)c1=O (stereo not given),inactive: -0.4%
11,O=C(OCCCN1CCCC1)C(O)(c1ccccc1)C1CCCCC1 (stereo not given),inactive: 8.6%
12,O=[N+]([O-])c1cc([N+](=O)[O-])c(Nc2ccccn2)c([N+](=O)[O-])c1,inactive: 2.1%
13,Cc1c(NP(C)(=O)Oc2ccc(C(C)C)cc2)c(=O)n(-c2ccccc2)n1C (stereo not given),inactive: 1.5%
14,CCc1ccc(OP(C)(=O)O)cc1,inactive: 21.9%
15,CP(=O)(Nc1ccccn1)Oc1ccccc1 (stereo not given),inactive: -3.4%
16,COc1ccccc1OP(C)(=O)Nc1ccc(C)cc1C (stereo not given),inactive: 20%
17,COc1ccccc1OP(C)(=O)Nc1ccc(Br)cc1 (stereo not given),inactive: 24.8%
18,CN(C)CCOC(=O)C(O)(c1ccccc1)C1CCCC1 (stereo not given),inactive: 4.4%
19,COc1ccc(OP(C)(=O)Nc2ccccn2)cc1 (stereo not given),inactive: 16%
20,Cc1nc2ccc3ccccc3c2o1.O=[N+]([O-])c1cc([N+](=O)[O-])c(O)c([N+](=O)[O-])c1,inactive: -17%
21,CP(=O)(OCCOc1ccccc1)OCCOc1ccccc1,inactive: 2.7%
22,CP(=O)(Nc1ccc(Cl)cc1Cl)Oc1ccccc1 (stereo not given),inactive: 5%

row,SMILES,inhibition
1,Cc1cc(C)cc(OP(C)(=O)Nc2cccc(C(F)(F)F)c2)c1 (stereo not given),inactive: -7.8%
2,COc1ccc(OP(C)(=O)Nc2ccccc2Br)cc1 (stereo not given),inactive: 7.4%
3,COc1ccccc1OP(C)(=O)Nc1ccc(C)c(C)c1 (stereo not given),inactive: 14%
4,CCOC(=O)c1ccc(NP(C)(=O)Oc2ccccc2)cc1 (stereo not given),inactive: 0.2%
5,COc1ccccc1OP(C)(=O)Nc1ccc(C)cc1 (stereo not given),inactive: 20.7%
6,Cc1ccc(NP(C)(=O)Oc2ccccc2)c(C)c1 (stereo not given),inactive: 16.8%
7,COc1ccccc1OP(C)(=O)Nc1cc(Cl)ccc1C (stereo not given),inactive: -3.8%
8,COc1ccc(OP(C)(=O)Nc2cccc(F)c2)cc1 (stereo not given),inactive: -3%
9,Cc1cc(C)cc(OP(C)(N)=O)c1 (stereo not given),inactive: 21.3%
10,CC(C)(C)c1ccc(OP(C)(=O)Nc2ccc(SC(F)(F)F)cc2)cc1 (stereo not given),inactive: -47.1%
11,Cc1cccc(C)c1OP(C)(N)=O (stereo not given),inactive: 2.1%
12,O=[N+]([O-])c1ccc2c(c1)C=Nc1ccccc1O2,inactive: 4%
13,CCN(CC)CCCOC(=O)C(O)(c1ccccc1)c1ccccc1,inactive: 3.9%
14,CCOP(C)(=S)SCC(=O)NC(C)C(=O)O (stereo not given),inactive: 21.4%
15,CCOC(=O)c1ccc(NP(C)(=O)Oc2ccc(OC)cc2)cc1 (stereo not given),inactive: 1.7%
16,CP(=O)(Nc1ccccn1)Oc1ccc(Cl)cc1 (stereo not given),inactive: -6.1%
17,CP(=O)(Nc1ccc(SC(F)(F)F)cc1)Oc1ccc(Cl)cc1 (stereo not given),inactive: -17.1%
18,Cc1cccc(C)c1OP(C)(=O)Nc1ccc(SC(F)(F)F)cc1 (stereo not given),inactive: -4.8%
19,CP(=O)(Oc1ccccc1)OC(c1ccccc1)C(F)(F)F (stereo not given),inactive: -5.5%
20,CCc1ccc(OP(C)(=O)N2CCN(c3ccc([N+](=O)[O-])cc3)CC2)cc1 (stereo not given),inactive: 21.4%
21,CP(=O)(NC(=O)Nc1ccccc1)Oc1ccccc1 (stereo not given),inactive: 11.8%
22,Cc1cc(C)cc(OP(C)(=O)Nc2ccc(SC(F)(F)F)cc2)c1 (stereo not given),inactive: -20.7%

row,SMILES,inhibition
1,CP(=S)(Nn1cnnc1)Oc1ccccc1 (stereo not given),inactive: 1.7%
2,COc1ccccc1OP(C)(=O)Nc1ccccc1 (stereo not given),inactive: -14.9%
3,CP(=O)(Nc1ccccc1Br)Oc1ccccc1 (stereo not given),inactive: 9.6%
4,CN1CCCCC1COC(=O)C1(O)c2ccccc2CCc2ccccc21 (stereo not given),inactive: 10.5%
5,COc1ccccc1OP(C)(=O)Nc1c(C)cccc1C (stereo not given),inactive: 11%
6,CP(=O)(Nc1ccc(SC(F)(F)F)cc1)Oc1ccccc1 (stereo not given),inactive: -10%
7,CCCOc1ccc(NP(C)(=O)Oc2ccc(Cl)cc2)cc1 (stereo not given),inactive: -8.5%
8,O=[N+]([O-])c1cc([N+](=O)[O-])c(Nc2nnnn2CCO)c([N+](=O)[O-])c1,inactive: 11.9%
9,CCOC(=O)C(CC)C1=NC(C)(C)Cc2ccccc21.O=[N+]([O-])c1cc([N+](=O)[O-])c(O)c([N+](=O)[O-])c1 (stereo not given),inactive: 8.3%
10,Cc1nc2ccc3ccccc3c2s1.O=[N+]([O-])c1cc([N+](=O)[O-])c(O)c([N+](=O)[O-])c1,inactive: 16.2%
11,O=[N+]([O-])c1cc([N+](=O)[O-])c(-n2nnc3ccccc32)c([N+](=O)[O-])c1,inactive: 5.6%
12,CP(=O)(Nc1cccc(Br)c1)Oc1ccccc1 (stereo not given),inactive: 10.7%
13,Cc1cc(C)cc(OP(C)(=O)Nc2ccccn2)c1 (stereo not given),inactive: -0.2%
14,Cc1ccc(C)c(NP(C)(=O)Oc2ccccc2)c1 (stereo not given),inactive: -12.5%
15,COc1ccccc1OP(C)(=O)Nc1cccc(Br)c1 (stereo not given),inactive: 9.1%
16,Cc1cc(C)cc(OP(C)(=O)Nc2ccc(C)cc2C)c1 (stereo not given),inactive: 7.7%
17,CCOC(=O)c1ccc(NP(C)(=O)Oc2cc(C)cc(C)c2)cc1 (stereo not given),inactive: -5.1%
18,CC1=NCCc2c1[nH]c1ccccc21.O=[N+]([O-])c1cc([N+](=O)[O-])c(O)c([N+](=O)[O-])c1,inactive: 14.9%
19,O=C(O)c1cccc(Nc2c([N+](=O)[O-])cc([N+](=O)[O-])cc2[N+](=O)[O-])c1,inactive: 11.2%
